This is an account of results in BindingDB's records for doi:10.1016/s0014-2999(96)00840-0 (Hoechst Marion Roussel, 1996).

Sequences of proteins named here, by UniProt entry; tags and fusion partners are left off.
UniProt P18901, whole entry: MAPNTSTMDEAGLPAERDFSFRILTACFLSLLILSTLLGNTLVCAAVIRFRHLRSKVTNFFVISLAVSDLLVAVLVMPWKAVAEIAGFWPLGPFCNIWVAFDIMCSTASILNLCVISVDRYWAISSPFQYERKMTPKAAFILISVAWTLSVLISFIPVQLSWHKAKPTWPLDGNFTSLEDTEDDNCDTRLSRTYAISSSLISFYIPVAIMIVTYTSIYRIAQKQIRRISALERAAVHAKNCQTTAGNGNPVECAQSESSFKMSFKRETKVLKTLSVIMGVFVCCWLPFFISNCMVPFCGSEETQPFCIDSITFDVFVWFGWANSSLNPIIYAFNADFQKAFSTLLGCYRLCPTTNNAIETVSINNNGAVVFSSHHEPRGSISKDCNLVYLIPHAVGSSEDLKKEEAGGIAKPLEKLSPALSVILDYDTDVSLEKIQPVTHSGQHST
UniProt P14842, whole entry: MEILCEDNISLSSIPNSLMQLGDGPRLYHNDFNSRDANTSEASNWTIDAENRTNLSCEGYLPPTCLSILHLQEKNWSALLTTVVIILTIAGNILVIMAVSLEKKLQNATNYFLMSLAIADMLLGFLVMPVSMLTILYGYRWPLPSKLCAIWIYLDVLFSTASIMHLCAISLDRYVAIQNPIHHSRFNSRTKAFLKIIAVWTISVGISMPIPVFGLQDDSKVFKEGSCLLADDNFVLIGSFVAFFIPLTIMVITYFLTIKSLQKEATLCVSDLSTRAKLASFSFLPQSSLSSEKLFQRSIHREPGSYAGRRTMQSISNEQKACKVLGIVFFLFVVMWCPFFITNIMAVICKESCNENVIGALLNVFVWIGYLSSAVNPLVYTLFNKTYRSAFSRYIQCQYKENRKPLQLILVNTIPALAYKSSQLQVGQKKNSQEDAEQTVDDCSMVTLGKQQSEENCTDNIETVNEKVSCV

One may read the Ki as the equilibrium dissociation constant of an inhibitor or competing ligand from its target. A low value points to higher affinity.

One assay concerns the target D(1A) dopamine receptor (Rattus norvegicus, UniProt P18901).
The target in assay [1] is 5-hydroxytryptamine receptor 2A (Rattus norvegicus, UniProt P14842).

For the compound `Cc1nc2n(c(=O)c1CCN1CCC(c3noc4cc(F)ccc34)CC1)CCCC2` [3-{2-[4-(6-Fluoro-benzo[d]isoxazol-3-yl)-piperidin-1-yl]-ethyl}-2-methyl-6,7,8,9-tetrahydro-pyrido[1,2-a]pyrimidin-4-one(risperidone)], the Ki at D(1A) dopamine receptor came out at 550 nM.
In turn, `Cc1cc2c(s1)=Nc1ccccc1NC=2N1CCN(C)CC1` [CAS_132539-06-1] had a Ki in assay [1] of 13.3 nM.
